Earlier results, collected in patent publication US20090010992A1 (priority 2007, published 2009).

Legend:
[1] = in vivo
[2] = tablets containing 400 μg of fentanyl

Row | SMILES | GI bioavailability [1] | peak plasma level [2] | time of peak plasma level post-administration [2]
1 | CCC(=O)N(c1ccccc1)C1(COC)CCN(CCc2cccs2)CC1 | 12% |  | 
2 | CCC(=O)N(c1ccccc1)C1CCN(CCc2ccccc2)CC1 |  | 2.5 ng/mL | 5 min

This is a selection: effects in other tests are not listed, and their absence says nothing.
